Paper PMC13730216, “Membrane protein solubilization and structure determination using de novo–designed proteins” (2026)

Amino acid sequences for entries named in this document (tags omitted). Residues count along the entry.
UniProt P0A910, 22-197 limits assumed: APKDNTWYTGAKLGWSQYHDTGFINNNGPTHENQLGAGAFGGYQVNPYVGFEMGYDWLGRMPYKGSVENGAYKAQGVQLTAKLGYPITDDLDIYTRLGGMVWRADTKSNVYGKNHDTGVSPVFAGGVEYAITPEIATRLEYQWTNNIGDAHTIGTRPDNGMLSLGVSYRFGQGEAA

Target: WRAP-OmpA (helical WRAPed OmpA) (Escherichia coli, UniProt P0A910)
Assay: native MS and MS/MS
Details: 10 uM protein, 1 mM ligand; 0.5 M ammonium acetate pH 6.9; complex with two chitobiose adducts selected (14+)
Text: native MS and MS/MS on WRAP-OmpA (helical WRAPed OmpA) | Native mass spectrometry (MS) confirmed that WRAP-OmpA binds chitobiose, a native OmpA ligand

CC(=O)N[C@H]1[C@H](O[C@H]2[C@H](O)[C@@H](NC(C)=O)C(O)O[C@@H]2CO)O[C@H](CO)[C@@H](O)[C@@H]1O (stereo partly shown)
native MS and MS/MS: Native mass spectrometry (MS) confirmed that WRAP-OmpA binds chitobiose, a native OmpA ligand
